Laboratory results from article PMC6531791 (Molecular Metabolism, 2019).

System: SN DA neurons / midbrain tissue
Experiment: Real-time PCR of midbrain tissue or DAT-ribotag immunoprecipitated mRNA
Type: in vivo, mouse
Conditions: DAT-cre-ribotag animals; 4h time point; n = 4–7 per group

What does the source list for CN1CC=C(c2ccccc2)CC1 [MPTP, 1-methyl-4-phenyl-1,2,5,6 tetrahydropyridine]?
expression of mitochondrial fission genes (Fis-1, Mff, Drp-1): increased expression of Drp-1; expression of mitochondrial fusion genes (Mitofusin 1 and 2, Opa-1): markedly decrease in both mitofusins expression
